Data on 43 molecules can be found in PubChem BioAssay AID602179 (National Center for Advancing Translational Sciences (NCATS), 2012).

Sequences of proteins named here, by UniProt entry; tags and fusion partners are left off.
UniProt O75874, whole entry R132H: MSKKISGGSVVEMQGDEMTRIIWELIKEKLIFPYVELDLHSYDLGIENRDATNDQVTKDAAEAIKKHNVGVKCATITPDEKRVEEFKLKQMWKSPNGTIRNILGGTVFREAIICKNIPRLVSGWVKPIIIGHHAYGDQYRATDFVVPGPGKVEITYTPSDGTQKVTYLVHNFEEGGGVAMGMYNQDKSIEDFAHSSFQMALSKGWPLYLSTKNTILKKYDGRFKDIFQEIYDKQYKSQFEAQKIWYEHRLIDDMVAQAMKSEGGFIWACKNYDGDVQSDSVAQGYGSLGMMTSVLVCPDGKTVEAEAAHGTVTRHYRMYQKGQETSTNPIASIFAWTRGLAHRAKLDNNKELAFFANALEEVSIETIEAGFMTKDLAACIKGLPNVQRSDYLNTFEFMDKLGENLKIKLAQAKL

Molecules are shown by their SMILES. Only a part is listed here, and it is no random draw. The source made the active and inactive calls. Calls follow the shape of the dose curve; as a rule, active = well fitted inhibition curve with a large enough effect; inconclusive = small, poorly fitted or top-dose-only effect; inactive = no such curve, though single readings can be large or run the other way.

The target of the experiment is Isocitrate dehydrogenase [NADP] cytoplasmic (Homo sapiens) (UniProt O75874). Description: qHTS for Inhibitors of mutant isocitrate dehydrogenase 1 (IDH1): qHTS. Also: nearly all actives have a fitted effect of over 65% in size. Particulars: IDH1-R132H enzyme, NADPH consumption, diaphorase/resazurin fluorescence; at 76.6 µM (top of the series) unless noted. An excerpt:
Unbiased genomic sequencing for 22 glioma genomes found recurrent mutation of isocitrate dehydrogenase 1 (IDH1) on chromosome 2q33-a gene encoding the cytosolic isoform of IIDH1associated with the tricarboxylic acid cycle (TCA) that catalyzes the oxidative decarboxylation of isocitrate, yielding alpha-ketoglutarate and CO2 via NADP+ to NADPH conversion. Subsequent studies confirmed the recurrent IDH mutations in up to 70% of secondary gliomas and in 10% of AML cases. […] This in effect defines IDH1 as an oncogene, and provides an extraordinary opportunity to discover chemical probes against mutant IDH1 that may translate into much needed new therapies for glioma and AML patients. […] NIH Chemical Genomics Center [NCGC] NIH Molecular Libraries Probe Centers Network [MLPCN] MLPCN Grant: DA032129 Assay Submitter (PI): Lenny Dang, Agios Pharmaceuticals
IDH1-R132H (0.5 ug/mL) was dispensed into black, solid-bottom 1536-well plates at 3 uL/well in 20 mM Tris-HCl (pH 7.5), 150 mM NaCl, 10 mM MgCl2, 4 mM beta-ME, and 0.05% protease-free BSA. Then, 23 nL of compounds or DMSO were delivered to each well using a pin tool. A pre-read was run on the Viewlux to identify fluorescent compounds (540 nm excitation filter, 598 nm emission filter, bodipy mirror and 2 second exposure). After 30 minutes of incubation with compound, 3 uL of substrate mix were dispensed (0.016 mM NADPH, 2 mM alpha-KG, 20 mM Tris-HCl (pH 7.5), 150 mM NaCl, 10 mM MgCl2, and 0.05% protease-free BSA). Plates were spun for 1 min at 1000xg and incubated at room temperature for 80 min. Then 1.5 uL of each detection reagent component for the coupling system were added (0.12 mg/mL diaphorase and 0.072 mM resazurin, each in 20 mM Tris-HCl (pH 7.5), 150 mM NaCl, 10 mM MgCl2, and 0.05% protease-free BSA ) The protein, substrate and two detection components were maintained at 4 °C throughout the screen. Additionally, the substrate and resazurin reagents were protected from light. The plates were measured on an Envision plate reader for fluorescence signal using a 540 nm excitation filter and 590 nm emission filter with 10 flashes. 1x and 0x (no-enzyme) IDH1-R132H enzyme control were used to normalize %Activity of identified inhibitors; 0x enzyme values corresponded to 100% Activity (full inhibition), while 1x IDH1-R132H enzyme values were used to normalize 0%Activity (no inhibition). Concentration-response curves were fitted to the signals arising from the resulting fluorescence. The concentration-effect curves were then classified based on curve quality (r2), response magnitude and degree of measured activity, and compounds were subsequently categorized based on their curve class. […] Keywords: isocitrate dehydrogenase, IDH1, IDH1-R132H, MLSMR, MLPCN, NIH Roadmap, qHTS, NCGC
Background: In qHTS, concentration-response curves come from the screen itself.
`Cc1c([N+](=O)[O-])cc([N+](=O)[O-])c(Br)c1[N+](=O)[O-]`: the activity change, negative = inhibition was inactive: 0.295%. Under `CCN(CC)CCCOC(=O)C(O)(c1ccccc1)C1CCCCC1` (stereo not drawn) stands inactive: 4.24%.

As for `CP(=O)(Nc1ccccc1)Oc1ccc(F)cc1` (stereo not drawn), the activity change, negative = inhibition is inactive: 3.4%.

Consider `CCCCCOc1ccc(NP(C)(=O)Oc2ccc(Cl)cc2Cl)cc1` (stereo not drawn), for which the activity change, negative = inhibition is inactive: 2.18%.

Turning to `CCOC(=O)c1ccc(NP(C)(=O)Oc2ccc(F)cc2)cc1` (stereo not drawn), the activity change, negative = inhibition was inactive: 0.505%. Take `COc1ccc(OP(C)(=O)Nc2ccc(SC(F)(F)F)cc2)cc1` (stereo not drawn): the activity change, negative = inhibition was inactive: 3.26%.

As for `O=C(OCCN1CCN(CCOCc2ccccc2)CC1)C(O)(c1ccccc1)c1ccccc1`, the activity change, negative = inhibition is inactive: 0.497%. For `CP(=O)(Nc1ccccc1F)Oc1ccccc1` (stereo not drawn), the activity change, negative = inhibition is inactive: 0.551%. In the case of `CC(C)c1ccc(OP(C)(=O)Nc2ccc(SC(F)(F)F)cc2)cc1` (stereo not drawn), the activity change, negative = inhibition was inactive: 1.63%. For `CP(=O)(Nc1ccc2c(c1)OCCO2)Oc1ccccc1` (stereo not drawn), the activity change, negative = inhibition was inactive: 1.18%. For `Cc1ccccc1NP(C)(=O)Nc1ccccc1C`, the activity change, negative = inhibition is inactive: 0.648%. As to `CP(=O)(Nc1ccc(SC(F)(F)F)cc1)Oc1ccc(F)cc1` (stereo not drawn), the activity change, negative = inhibition is inactive: 3.87%.

For the molecule `CCOP(C)(=S)SCC(=O)NC(C)(CC)C(=O)O` (stereo not drawn), the activity change, negative = inhibition is inactive: -1.43%. Turning to `O=[N+]([O-])c1ccc(OP2(=O)COCCO2)cc1` (stereo not drawn), the activity change, negative = inhibition is inactive: -4.78%. On to `Cc1cc(-c2cccc3ccccc23)c(C)cn1.O=[N+]([O-])c1cc([N+](=O)[O-])c(O)c([N+](=O)[O-])c1`, for which the activity change, negative = inhibition is inactive: 7%. Under `Cc1c(C(c2ccc3c(c2)OCO3)c2c(C)n(C)n(-c3ccccc3)c2=O)c(=O)n(-c2ccccc2)n1C.O=[N+]([O-])c1cc([N+](=O)[O-])c(O)c([N+](=O)[O-])c1` stands inactive: 10.5%.

For the molecule `COc1ccc(OP(C)(=O)Nc2cccc(Br)c2)cc1` (stereo not drawn), the activity change, negative = inhibition was inactive: -1.56%. Under `CN(C)CCOC(=O)C(O)(c1ccccc1)C1CCCCC1` (stereo not drawn) stands inactive: -1.19%; under `COc1ccc(NP(C)(=O)Oc2ccccc2OC)cc1` (stereo not drawn), inactive: -1.91%; under `Nc1ccc2c(ccc3cccnc32)n1.O=[N+]([O-])c1cc([N+](=O)[O-])c(O)c([N+](=O)[O-])c1`, inactive: -1.03%.

For the molecule `CCOC(=O)c1ccc(NP(C)(=O)Oc2ccc(Cl)cc2)cc1` (stereo not drawn), the activity change, negative = inhibition was inactive: 2.91%. On to `CP(=O)(OC12CC3CC(CC(C3)C1)C2)OC12CC3CC(CC(C3)C1)C2`, for which the activity change, negative = inhibition is inactive: 4.16%.

Take `COc1ccccc1OP(C)(=O)Nc1ccccc1Br` (stereo not drawn): the activity change, negative = inhibition was inactive: 2.55%. Turning to `CC(C)(C)c1ccc(OP(C)(=O)O)cc1`, the activity change, negative = inhibition is inactive: -2.54%. For the molecule `CP(=O)(Nc1ccc(Cl)cc1)Oc1ccc(F)cc1` (stereo not drawn), the activity change, negative = inhibition is inactive: 2.43%. For the molecule `CN(C)C(=O)c1c([N+](=O)[O-])cc([N+](=O)[O-])cc1[N+](=O)[O-]`, the activity change, negative = inhibition was inactive: 10.9%. The result for `CCN(CC)CC(O)COC(=O)C(O)(c1ccccc1)C1CCCCC1` (stereo not drawn) reads inactive: 7.73%.

Consider `COc1ccc(OP(C)(=O)Nc2ccc(Br)cc2)cc1` (stereo not drawn), for which the activity change, negative = inhibition was inactive: 1.3%. On to `COc1ccccc1OP(C)(=O)Nc1c(C)n(C)n(-c2ccccc2)c1=O` (stereo not drawn), for which the activity change, negative = inhibition was inactive: -3.23%. With `O=C(OCCCN1CCCC1)C(O)(c1ccccc1)C1CCCCC1` (stereo not drawn), the activity change, negative = inhibition is inactive: 24.9%. In the case of `CP(=O)(Oc1ccccc1)N1CCOC1=O` (stereo not drawn), the activity change, negative = inhibition is inactive: 1.58%. `CCc1ccc(OP(C)(=O)Nc2cccnc2)cc1` (stereo not drawn): the activity change, negative = inhibition is inactive: 7.26%. Turning to `Cc1c(NP(C)(=O)Oc2ccc(C(C)C)cc2)c(=O)n(-c2ccccc2)n1C` (stereo not drawn), the activity change, negative = inhibition is inactive: 3.88%. For `O=[N+]([O-])c1cc([N+](=O)[O-])c(Nc2ccccn2)c([N+](=O)[O-])c1`, the activity change, negative = inhibition is inactive: 25.4%. Take `CP(=O)(Nc1ccccn1)Oc1ccccc1` (stereo not drawn): the activity change, negative = inhibition was inactive: 0.542%.

For `COc1ccccc1OP(C)(=O)Nc1ccc(C)cc1C` (stereo not drawn), the activity change, negative = inhibition is inactive: -0.687%.

For the molecule `CCc1ccc(OP(C)(=O)O)cc1`, the activity change, negative = inhibition is inactive: 2.28%. The result for `COc1ccccc1OP(C)(=O)Nc1ccc(Br)cc1` (stereo not drawn) reads inactive: 0.057%; that for `COc1ccc(OP(C)(=O)Nc2ccccn2)cc1` (stereo not drawn), inactive: 2.62%. The result for `CN(C)CCOC(=O)C(O)(c1ccccc1)C1CCCC1` (stereo not drawn) reads inactive: 7%; that for `CCCCCCCCCCCCCCCC1C[N+](C)(C)CCOP(C)(=O)O1` (stereo not drawn), inactive: 2.15%; that for `CP(=O)(Nc1ccc(Cl)cc1Cl)Oc1ccccc1` (stereo not drawn), inactive: -8.12%.

Take `CP(=O)(OCCOc1ccccc1)OCCOc1ccccc1`: the activity change, negative = inhibition was inactive: 2.89%.
